Test results reported in PubChem BioAssay (NCATS).
Only a part is listed here, and it is no random draw. Records with an inconclusive call do not appear. Active and inactive are the calls of the source. Unless noted, the call rests on the fitted dose curve; in most records, active means well fitted curve in the direction sought with a large enough effect; inconclusive means small, poorly fitted or top-dose-only effect, or another doubt; inactive means no such curve, though single readings can be large; an effect the other way counts as inactive or inconclusive.

The chains behind the UniProt entries cited, without tags or fusion partners. Where a name states a change or a piece, a line headed by the entry shows the natural chain unless it says otherwise.
UniProt Q07343: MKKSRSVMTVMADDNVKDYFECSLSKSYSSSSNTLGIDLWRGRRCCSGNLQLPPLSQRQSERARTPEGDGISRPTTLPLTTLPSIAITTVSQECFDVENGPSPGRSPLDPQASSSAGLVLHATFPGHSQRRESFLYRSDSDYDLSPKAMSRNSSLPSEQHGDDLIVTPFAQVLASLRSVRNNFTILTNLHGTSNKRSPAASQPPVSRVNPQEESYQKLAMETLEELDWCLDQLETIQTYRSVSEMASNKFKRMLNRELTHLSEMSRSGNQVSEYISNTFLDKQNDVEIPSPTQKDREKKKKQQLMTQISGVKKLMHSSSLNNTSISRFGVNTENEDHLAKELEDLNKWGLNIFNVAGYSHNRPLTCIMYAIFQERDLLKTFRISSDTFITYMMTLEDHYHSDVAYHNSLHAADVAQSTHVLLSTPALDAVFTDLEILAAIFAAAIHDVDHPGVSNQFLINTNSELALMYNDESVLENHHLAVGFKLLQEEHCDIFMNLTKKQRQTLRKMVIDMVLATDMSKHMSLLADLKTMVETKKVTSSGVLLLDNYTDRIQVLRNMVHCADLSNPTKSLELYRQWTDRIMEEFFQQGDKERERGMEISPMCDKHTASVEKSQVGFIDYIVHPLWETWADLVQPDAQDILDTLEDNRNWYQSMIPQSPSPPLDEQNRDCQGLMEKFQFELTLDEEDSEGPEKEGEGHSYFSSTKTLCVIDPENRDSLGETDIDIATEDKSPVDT

Columns and labels:
[1] = AP1 Signaling Pathway (AID 357; active means well fitted curve in either direction with a large enough effect, not every such curve was filed as active; further: on the % scale 0 is the no-effect control and ±100 the full control effect); conditions: ME-180 AP-1-bla reporter, EGF-induced, beta-lactamase ratio, 5 h; at 7.69 µM (top of the series) unless noted
In short: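 ME-180 cells with beta-lactamase reporter under AP-1 response element, stimulated with EC50 EGF; compounds tested in titration series, 5 h at 37 °C. CCF4 substrate added 2.5 h at room temperature; 460/530 nm emission ratio gave %activity and AC50.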

[2] = NFAT Signaling Pathway (AID 444; active means well fitted curve in either direction with a large enough effect, not every such curve was filed as active;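 further: carbachol stimulus at about its EC50 of 1 µM final; on the % scale 0 is the no-effect control and ±100 the full control effect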); conditions: Jurkat NFAT-bla M1, carbachol, beta-lactamase ratio, 5 h; at 7.69 µM (top of the series) unless noted
[3] = Stat Signaling Pathway (AID 446; active means well fitted curve in either direction with a large enough effect, not every such curve was filed as active;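 further: ME-180 cervical cancer cells given 40 pM IL-6 alongside compound; SIE-controlled beta-lactamase reporter measured as 460/530 nm FRET emission ratio; on the % scale 0 is the no-effect control and ±100 the full control effect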); conditions: ME-180 (cervical carcinoma) SIE beta-lactamase reporter, IL-6 stimulated, 5 h; at 7.69 µM (top of the series) unless noted
In short: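 IL-6/STAT signaling read in ME-180 cells via an SIE beta-lactamase reporter. Stimulus was 40 pM IL-6 (its AC50) for 5 hrs, so both activation and inhibition register.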

[4] = biological target: Mitogen-activated protein kinase 10 (Mus musculus) (UniProt Q61831); experiment: JNK3 AlphaScreen Assay (AID 530; active means well fitted curve in either direction with a large enough effect, not every such curve was filed as active;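 further: kinase came from lysate of stimulated human HepG2 cells; signal reports phosphorylation of biotinylated GST-cJun 1-79 at Ser73 with 10 µM ATP; on the % scale 0 is the no-effect control and ±100 the full control effect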); conditions: JNK3 lysate, c-Jun phosphorylation
In short: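 Room-temperature AlphaScreen kinase assay; pre-activated HepG2 lysate as JNK3 source, biotin-GST-cJun(1-79) substrate, 10 uM ATP, compound 15 min preincubation.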

[5] = Cell Viability - N2a (AID 540); conditions: N2a mouse neuroblastoma cell viability; at 92.2 µM (top of the series);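 further: cells exposed to compound for 40 h at 37 °C; plate controls were DMSO alone for no effect and tamoxifen control for full effect; nearly all actives have a fitted effect of over 45% in size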
In short: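 First, 1500 N2a cells per well incubate 5 hr at 37 °C; next, compounds are added and incubated 40 hr at 37 °C; finally CellTiter-Glo is added and luminescence read after 20 min, with AC50 derived by Hill modeling.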

[6] = Cell Viability - NIH 3T3 (AID 541); conditions: NIH 3T3 cell viability, qHTS; at 92.2 µM (top of the series);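 further: cells exposed to compound for 40 hours; plate controls were DMSO alone for no effect and tamoxifen positive control for full effect; nearly all actives have a fitted effect of over 25% in size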
In short: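 AC50 values reflect concentration-dependent loss of intracellular ATP in NIH 3T3 cells after 40 hr treatment in complete culture medium, quantified by luciferase-based luminescence.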

[7] = Cell Viability - HUV-EC-C (AID 542);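 further: cells exposed to compound for 40 hours; on the % scale 0 is the no-effect control and ±100 the full control effect; nearly all actives have a fitted effect of over 35% in size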
In short: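 Decrease in cellular ATP, quantified by luciferase luminescence, reflects toxicity in normal human vascular endothelial HUV-EC-C cells given compound for 40 hr in complete culture medium. Values are AC50s from concentration-response curves.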

[8] = Cell Viability - H-4-II-E (AID 543);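 further: cells exposed to compound for 40 hours; on the % scale 0 is the no-effect control and ±100 the full control effect; nearly all actives have a fitted effect of over 35% in size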
In short: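 Here, cytotoxicity is measured in the rat hepatoma line H-4-II-E as loss of intracellular ATP after 40 hr compound treatment, detected by luciferase luminescence.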

[9] = Cell Viability - SH-SY5Y (AID 544);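 further: cells exposed to compound for 40 hours; nearly all actives have a fitted effect of over 55% in size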
In short: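 Cytotoxicity is scored as a concentration-dependent fall in intracellular ATP in human SH-SY5Y cells treated 40 hr in complete culture medium. Potency is expressed as AC50 from a Hill equation fit.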

[10] = Cell Viability - Renal Proximal Tubule (AID 545); conditions: renal proximal tubule cells viability, primary cells of rat origin; at 91.7 µM (top of the series);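 further: cells exposed to compound for 40 hours; nearly all actives have a fitted effect of over 40% in size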
In short: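 Viability taken as intracellular ATP (CellTiter-Glo luminescence) after 40 hr, 37 °C compound treatment of primary proximal tubule cells from rat kidney, 1000 cells/well; Hill-equation fits of qHTS concentration-response data gave AC50.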

[11] = Cell Viability - Mesenchymal (AID 546); conditions: mesenchymal cells viability, qHTS; at 91.7 µM (top of the series);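 further: cells exposed to compound for 40 hours before reading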
In short: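 AC50 values reflect the drop in intracellular ATP in a human kidney mesenchymal line derived from normal glomeruli. Treatment lasts 40 hr at 37 °C in complete medium, and the signal comes from CellTiter-Glo luminescence.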

[12] = biological target: 3',5'-cyclic-AMP phosphodiesterase 4B (Homo sapiens) (UniProt Q07343); experiment: qHTS Assay for Inhibitors of PDE-IV (AID 607; active means well fitted activation curve with a large enough effect in the main read-out, with a control signal flat, not every such curve was filed as active; further: % of control where 0% means no effect); conditions: HEK293 ACTOne CNG channel cells, membrane potential fluorescence; at 22.9 µM (top of the series)
In short: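 Live HEK293 cells with a modified cyclic nucleotide-gated (CNG) channel report intracellular cAMP via membrane-potential dye fluorescence (ex 535/em 590 nm). Endogenous PDE-IV was targeted. Compounds were tested at up to 22.9 uM final; RO 20-1724 100 uM served as control.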

[13] = Cellular Toxicity (caspase-3) HepG2 (AID 654); conditions: HepG2 caspase-3 activation, luminescence, 0% = DMSO only, 100% = tamoxifen; at 92.2 µM (top of the series);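 further: cells exposed to compound for 16 hours before reading; 0% = DMSO alone and 100% = caspase signal from 100 µM tamoxifen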
In short: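 qHTS, HepG2, 1500 cells/well, complete medium; cpd 16 h 37 °C; Caspase-Glo 3/7, 20 min RT; lum. Norm: DMSO vs 100 uM tamoxifen; AC50 Hill fit.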

[14] = Cellular Toxicity (caspase-3) Jurkat (AID 655); conditions: Jurkat caspase-3 activation, luminescence, DMSO = 0%, tamoxifen = 100%; at 92.2 µM (top of the series);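 further: cells exposed to compound for 16 h at 37 °C before reading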
In short: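 Luminescent Caspase-Glo 3/7 read-out (20 min, room temperature) after 16 h compound treatment at 37 C of 5000 Jurkat cells per well. AC50 derived by Hill-equation fitting, scaled between DMSO basal and 100 uM tamoxifen stimulation.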

[15] = Cellular Toxicity (caspase-3) HUV-EC-C (AID 656); conditions: HUV-EC-C cells, caspase-3 activation (apoptosis), vehicle = 0, 100 µM tamoxifen = 100%; at 92.2 µM (top of the series)
In short: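 Luminescent Caspase-Glo 3/7 readout after 16 h, 37 °C compound exposure of HUV-EC-C endothelial cells, 1000 per well, complete medium. AC50 derived by Hill fitting, with DMSO as baseline and 100 uM tamoxifen as full activation.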

[16] = Cellular Toxicity (caspase-3) SHSY5Y (AID 657); conditions: SH-SY5Y caspase-3 activation, DMSO zero, 10 µM staurosporine = 100%; at 91.7 µM (top of the series)
In short: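 Luminescent Caspase-Glo 3/7 read-out, 1 hr room temperature, follows 16 hours of compound treatment of SH-SY5Y cells at 37 °C. Normalization: DMSO basal, 10 uM staurosporine as 100%; AC50 values from Hill-equation concentration-response fits.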

[17] = Cellular Toxicity (caspase-3) BJ (AID 658); conditions: BJ fibroblasts, luminescence, normalized: DMSO 0%, staurosporine 100%; at 91.7 µM (top of the series)
In short: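 Readout: Caspase-Glo 3/7 luminescence increase in BJ cells after 16 hr treatment at 37 °C. Staurosporine and tamoxifen served as positive controls; AC50 values came from Hill modelling of data normalized to DMSO and 10 uM staurosporine.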

[18] = Cellular Toxicity (caspase-3) MRC-5 (AID 659); conditions: MRC-5 cells, luminescence, normalized: DMSO 0%, 10 µM staurosporine 100%; at 91.7 µM (top of the series)
In short: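 Concentration-dependent caspase 3/7 activation is measured in human normal lung fibroblasts (MRC-5) following 16-hour treatment. AC50 values come from standard Hill-equation modeling of luminescence normalized to DMSO and 10 uM staurosporine.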

[19] = Cellular Toxicity (caspase-3) Mesangial (AID 660); conditions: mesangial cells, normalized: DMSO 0%, 100 µM tamoxifen 100%; at 91.7 µM (top of the series);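 further: combined caspase 3 and 7 activity read by Caspase-Glo luminescence; cells exposed to compound for 16 h before the caspase read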
In short: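 Concentration-response qHTS: compound-induced rise in caspase 3/7 luminescence in human mesangial cells after 16 h, normalized to DMSO and 100 uM tamoxifen controls.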

[20] = Cellular Toxicity (caspase-3) SK-N-SH (AID 661); conditions: SK-N-SH caspase-3 activation, qHTS, DMSO as zero, staurosporine as full; at 91.7 µM (top of the series)
In short: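 Caspase 3/7 activation is measured as a luminescence increase from aminoluciferin released by substrate cleavage in SK-N-SH cells after 16 hr compound treatment; values are AC50 from concentration-response curves.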

[21] = Cellular Toxicity (caspase-3) H-4-II-E (AID 663); conditions: H-4-II-E rat hepatoma, scaled: DMSO 0%, 100 µM tamoxifen 100%; at 92.2 µM (top of the series)
In short: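 Apoptosis induction is scored as increased luminescence from caspase 3/7 substrate cleavage in rat hepatoma H-4-II-E cells exposed to compound for 16 hr. Activity is scaled between DMSO and 100 uM tamoxifen.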

[22] = Cellular Toxicity (caspase-3) N2a (AID 665); conditions: N2a cells, luminescence, normalized: DMSO 0%, 10 µM staurosporine 100%; at 92.2 µM (top of the series);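 further: compound exposure lasted 16 h at 37 °C before readout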
In short: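 Plated mouse neuroblastoma N2a cells received titrated compounds for 16 h in complete medium. Caspase activity was then detected with a peptide-aminoluciferin luminescent reagent.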

[23] = Cellular Toxicity (caspase-3) NIH 3T3 (AID 666); conditions: NIH 3T3 caspase-3 activation, apoptosis/toxicity, 0% DMSO, 100% is 100 µM tamoxifen; at 92.2 µM (top of the series);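 further: caspase signal read after 16 h compound exposure; 0% = DMSO basal and 100% = 100 µM tamoxifen stimulation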
In short: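 Concentration-response qHTS in NIH 3T3 mouse fibroblasts scores caspase-3/7 activation as rising luminescence after 16 hr compound exposure. Signals are scaled between DMSO-only and 100 uM tamoxifen.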

[24] = Cellular Toxicity (caspase-3) Renal Proximal Tubule (AID 667); conditions: renal proximal tubule cells, primary cells freshly taken from rat, solvent-only wells 0%, staurosporine 100%; at 91.7 µM (top of the series);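 further: cells exposed to compound for 16 hours at 37 °C before detection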
In short: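 Caspase 3/7 activation measured by luminescent aminoluciferin release in primary rat proximal tubule cells after 16 hr compound exposure at 37 °C. AC50 from Hill-fitted concentration-response, scaled between DMSO and 10 uM staurosporine.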

[25] = Cell Viability - LYMP2-001 (AID 921); conditions: LYMP2-001 lymphoblastoid cell viability; at 92.2 µM (top of the series);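 further: cells exposed to compound for 24 h at 37 °C; 0% = DMSO only and full inhibition = tetraoctylammonium bromide control wells; nearly all actives have a fitted effect of over 70% in size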
[26] = MultiTox-Fluor Cytotoxicity Assay - LYMP1-001 - Dead Cells (AID 946); conditions: LYMP1-001 lymphoblastoid cells, dead-cell protease fluorescence; at 92.2 µM (top of the series);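 further: 0% = DMSO and 100% = tetraoctylammonium bromide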
In short: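 In this qHTS, 15 uM tetraoctylammonium bromide defined 100% and DMSO defined basal activity. Lymphoblastoid cells (LYMP1-001, 2500 per well) received compound for 16 hr at 37 C before a fluorogenic dead-cell substrate readout at 485/520 nm.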

[27] = MultiTox-Fluor Cytotoxicity Assay - LYMP1-001 - Live Cells (AID 947); conditions: LYMP1-001 lymphoblastoid cells, live-cell protease fluorescence viability; at 92.2 µM (top of the series);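 further: 0% = DMSO only and full inhibition = tetraoctylammonium bromide control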
[28] = Cell Viability - LYMP1-002 - Assay at 16 hr (AID 948); conditions: LYMP1-002 lymphoblastoid cell viability; at 92.2 µM (top of the series);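 further: 0% = DMSO alone and full effect = 92 µM tetraoctylammonium bromide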
In short: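 ATP luminescence (CellTiter-Glo) was measured after 16 hr compound exposure at 37 C of 2500 lymphoblastoid LYMP1-002 cells per well. Concentration-response curves were fitted with the Hill equation to give AC50.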

[29] = MultiTox-Fluor Cytotoxicity Assay - LYMP1-002 - Dead Cells (AID 960); conditions: LYMP1-002 lymphoblastoid cells, dead-cell protease fluorescence; at 46.1 µM (top of the series);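 further: 0% = DMSO and 100% = tetraoctylammonium bromide; nearly all actives have a fitted effect of over 60% in size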
In short: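 Acute cytotoxicity in a human lymphoblastoid line is scored as rising dead-cell protease signal after 16 hr exposure at 37 C, measured fluorometrically (485/520).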

[30] = MultiTox-Fluor Cytotoxicity Assay - LYMP1-003 - Dead Cells (AID 961); conditions: LYMP1-003 lymphoblastoid cells, dead-cell protease fluorescence; at 92.2 µM (top of the series);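 further: 0% = DMSO and 100% = tetraoctylammonium bromide; nearly all actives have a fitted effect of over 70% in size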
In short: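 Acute toxicity is scored as increased dead-cell protease activity in human lymphoblastoid LYMP1-003 cells after 16 h compound exposure in complete culture medium. Activity is normalized to DMSO basal and 15 uM tetraoctylammonium bromide as full response.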

[31] = MultiTox-Fluor Cytotoxicity Assay - LYMP1-003 - Live Cells (AID 962); conditions: LYMP1-003 lymphoblastoid cells, MultiTox-Fluor live-cell protease fluorescence; at 92.2 µM (top of the series);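 further: 0% = DMSO only and full loss = 92 µM tetraoctylammonium bromide; cytotoxic hits lower the live-cell protease signal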
In short: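 Cells plated at 2500 per well and incubated 5 hr; compounds added and incubated 16 hr at 37 C; MultiTox-Fluor reagent added for 60 min at room temperature; fluorescence of liberated AFC measured at 405/510 nm.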

NC(=O)Nc1ccc([As](=O)(O)O)cc1
inactive: activity change, negative = inhibition [1] 4.45% [at 17.2 µM] | activity change, negative = inhibition [2] -3.62% [at 17.2 µM] | activity, negative = inhibition [3] 6.02% [at 17.2 µM] | activity change, negative = inhibition ([4]; at 25.6 µM (top of the series)) -0.459% | activity change, negative = inhibition ([4]; at 57.1 µM (top of the series)) -5.29% | activity change, negative = cytotoxicity [5] 5.17% | activity change, negative = cytotoxicity [6] 5.19% | Potency [7] | Potency [8] | Potency [9] | activity change, negative = cytotoxicity [10] 2.37% | activity change, negative = cytotoxicity [11] 12.1% | activation (PDE inhibition) [12] 5.6% | caspase-3 activation [13] 0.173% | caspase-3 activation [14] 0.514% | caspase-3 activation [15] 0.66% | caspase-3 activation [16] 1.4% | caspase-3 activation [17] 0.351% | caspase-3 activation [18] 1.14% | caspase-3 activation [19] 0.367% | caspase-3 activation [20] -1.08% | caspase-3 activation [21] -0.0086% | caspase-3 activation [22] -1.42% | caspase-3 activation [23] -2.28% | caspase-3 activation [24] -4.33% | activity change, negative = cytotoxic [25] -10.6% | cytotoxicity (dead cells) [26] -10.1% | activity change, negative = cytotoxicity [27] 6.38% | activity change, negative = cytotoxicity [28] -5.25% | cytotoxicity (dead cells) [29] 7.94% | cytotoxicity (dead cells) [30] -5.14% | activity change, negative = fewer live cells [31] -4.68%
